Target: Fibronectin (UniProt P02751)
Assay: SPR; Biacore X100 Plus; fibronectin amine-coupled to a CM5 chip (2868 RU); rEF-Tu as analyte 0-200 ug/mL in HBS-EP+ (10 mM HEPES, 150 mM NaCl, 3 mM EDTA, 0.05% P20), 30 uL/min for 180 s, dissociation 1,000 s, 20°C

Chains of the proteins cited; added tags and fusions are not shown. Residues count along the entry.
UniProt P02751, 32-2477: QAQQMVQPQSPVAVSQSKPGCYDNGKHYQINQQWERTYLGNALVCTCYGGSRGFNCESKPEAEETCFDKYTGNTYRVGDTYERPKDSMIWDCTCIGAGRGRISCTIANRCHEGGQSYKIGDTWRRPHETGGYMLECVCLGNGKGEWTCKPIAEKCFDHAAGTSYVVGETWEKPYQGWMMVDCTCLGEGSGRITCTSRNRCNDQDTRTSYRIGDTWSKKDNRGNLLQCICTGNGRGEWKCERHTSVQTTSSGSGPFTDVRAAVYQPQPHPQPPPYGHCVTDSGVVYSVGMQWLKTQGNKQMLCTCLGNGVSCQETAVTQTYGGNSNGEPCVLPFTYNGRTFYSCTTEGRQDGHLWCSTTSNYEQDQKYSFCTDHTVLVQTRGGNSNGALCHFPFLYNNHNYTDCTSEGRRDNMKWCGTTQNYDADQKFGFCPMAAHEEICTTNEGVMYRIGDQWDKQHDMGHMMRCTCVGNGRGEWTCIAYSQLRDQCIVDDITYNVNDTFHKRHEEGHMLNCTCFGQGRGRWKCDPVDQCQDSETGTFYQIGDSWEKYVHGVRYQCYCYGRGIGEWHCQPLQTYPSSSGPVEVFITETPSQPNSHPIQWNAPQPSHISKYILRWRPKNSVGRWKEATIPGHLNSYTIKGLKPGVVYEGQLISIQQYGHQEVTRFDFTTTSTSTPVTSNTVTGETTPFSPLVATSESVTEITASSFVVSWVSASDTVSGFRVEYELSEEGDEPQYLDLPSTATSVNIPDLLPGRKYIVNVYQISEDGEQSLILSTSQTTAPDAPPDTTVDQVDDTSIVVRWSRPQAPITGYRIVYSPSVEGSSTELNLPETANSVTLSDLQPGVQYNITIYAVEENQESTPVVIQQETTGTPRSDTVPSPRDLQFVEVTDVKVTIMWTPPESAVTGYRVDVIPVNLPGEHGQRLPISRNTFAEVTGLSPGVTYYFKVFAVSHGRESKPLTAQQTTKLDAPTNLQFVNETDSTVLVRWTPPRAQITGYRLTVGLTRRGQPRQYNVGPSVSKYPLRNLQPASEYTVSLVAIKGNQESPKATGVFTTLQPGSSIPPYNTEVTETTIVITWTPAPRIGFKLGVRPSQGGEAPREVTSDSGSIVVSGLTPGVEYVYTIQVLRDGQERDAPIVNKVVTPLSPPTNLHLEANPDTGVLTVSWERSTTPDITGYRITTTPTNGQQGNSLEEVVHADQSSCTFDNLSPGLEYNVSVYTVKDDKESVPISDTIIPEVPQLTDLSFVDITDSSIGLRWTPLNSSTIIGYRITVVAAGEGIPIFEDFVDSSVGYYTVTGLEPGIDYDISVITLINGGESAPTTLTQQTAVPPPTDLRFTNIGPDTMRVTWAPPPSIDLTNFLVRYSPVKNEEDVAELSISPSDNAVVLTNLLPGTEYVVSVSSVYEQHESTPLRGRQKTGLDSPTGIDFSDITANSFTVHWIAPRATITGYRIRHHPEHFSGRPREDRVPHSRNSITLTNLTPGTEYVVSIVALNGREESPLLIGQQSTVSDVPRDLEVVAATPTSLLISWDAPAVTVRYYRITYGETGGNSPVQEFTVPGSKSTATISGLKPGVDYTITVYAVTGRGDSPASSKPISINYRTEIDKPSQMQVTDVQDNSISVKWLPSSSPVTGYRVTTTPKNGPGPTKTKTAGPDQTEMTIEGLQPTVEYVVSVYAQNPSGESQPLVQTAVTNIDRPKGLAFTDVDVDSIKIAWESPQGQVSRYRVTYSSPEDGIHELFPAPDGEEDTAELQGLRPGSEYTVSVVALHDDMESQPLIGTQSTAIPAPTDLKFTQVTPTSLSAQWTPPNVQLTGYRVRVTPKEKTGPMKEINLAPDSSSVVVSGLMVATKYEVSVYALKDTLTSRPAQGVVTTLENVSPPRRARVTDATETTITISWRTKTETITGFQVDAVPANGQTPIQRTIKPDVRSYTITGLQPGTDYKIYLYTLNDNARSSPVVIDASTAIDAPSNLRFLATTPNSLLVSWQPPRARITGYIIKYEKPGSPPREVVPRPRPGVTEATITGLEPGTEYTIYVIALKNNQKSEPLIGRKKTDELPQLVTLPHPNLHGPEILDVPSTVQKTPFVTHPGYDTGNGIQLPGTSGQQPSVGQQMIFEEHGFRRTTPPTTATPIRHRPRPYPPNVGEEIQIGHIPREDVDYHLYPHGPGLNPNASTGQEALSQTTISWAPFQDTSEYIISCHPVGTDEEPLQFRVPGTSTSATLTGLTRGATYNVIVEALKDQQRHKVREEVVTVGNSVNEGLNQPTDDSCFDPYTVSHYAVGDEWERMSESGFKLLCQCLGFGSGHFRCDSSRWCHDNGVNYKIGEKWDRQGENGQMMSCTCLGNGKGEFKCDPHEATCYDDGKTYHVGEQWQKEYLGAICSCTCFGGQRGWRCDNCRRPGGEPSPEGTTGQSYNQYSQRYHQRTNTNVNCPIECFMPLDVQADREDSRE

Q: How did the Kd turn out when “Recombinant elongation factor thermo unstable (EF-Tu) of Mycoplasma hyopneumoniae (from UniProt Q4A9G1 1-402) (natural protein; other documents disagree on this pair)” was run?
A: 605 nM

Q: What about the kon of the same substance?
A: 3470 M⁻¹ s⁻¹

From article PMC5962738
